For 1 compound, inhibition results are on record in ChEMBL document CHEMBL4340526, “Discovery and Mechanistic Study of Tailor-Made Quinoline Derivatives as Topoisomerase 1 Poison with Potent Anticancer Activity” (J Med Chem, 2019).

Positions count from the first letter of the chain named. Calls of active or inactive are those of the source. No cut-off for these calls is given here.

For experiment [1], the system named is T1, DNA topoisomerase 1 (Homo sapiens), P11387 [N722S].
T1 sequence (whole entry): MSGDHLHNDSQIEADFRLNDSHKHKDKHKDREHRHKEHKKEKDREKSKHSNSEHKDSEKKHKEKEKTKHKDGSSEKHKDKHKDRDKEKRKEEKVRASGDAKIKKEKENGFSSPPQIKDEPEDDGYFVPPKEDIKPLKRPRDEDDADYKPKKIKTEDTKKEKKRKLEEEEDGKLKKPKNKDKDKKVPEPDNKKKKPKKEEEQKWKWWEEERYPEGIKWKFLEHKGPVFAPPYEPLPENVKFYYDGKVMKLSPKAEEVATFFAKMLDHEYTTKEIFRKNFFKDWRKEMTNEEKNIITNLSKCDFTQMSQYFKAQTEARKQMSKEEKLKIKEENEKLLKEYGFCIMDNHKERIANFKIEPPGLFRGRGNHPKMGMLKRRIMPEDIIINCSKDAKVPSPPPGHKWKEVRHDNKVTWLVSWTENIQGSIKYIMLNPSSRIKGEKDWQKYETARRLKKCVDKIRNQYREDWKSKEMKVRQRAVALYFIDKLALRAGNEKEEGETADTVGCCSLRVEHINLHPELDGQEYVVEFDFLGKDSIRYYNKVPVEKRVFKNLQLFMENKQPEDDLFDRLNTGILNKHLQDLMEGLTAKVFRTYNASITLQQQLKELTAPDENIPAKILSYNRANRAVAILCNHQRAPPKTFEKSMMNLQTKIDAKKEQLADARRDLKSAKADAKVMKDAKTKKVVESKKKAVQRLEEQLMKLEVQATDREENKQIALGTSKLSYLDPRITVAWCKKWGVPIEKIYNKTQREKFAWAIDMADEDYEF
The conditions noted are these: MCF7, 1 to 5 uM.

Experiment [2] deals with T2, DNA topoisomerase 1 (Homo sapiens) (UniProt P11387).
T2 sequence (whole entry): T1 sequence (whole entry) with S722N
To be noted: Sf9, 2 to 25 uM.

For the compound `COc1ccc(-c2ccc3ncc(-c4nnco4)c(NCCCn4ccnc4)c3c2)cc1`, the inhibition entry in experiment [1] and in experiment [2] was “Active” each time.
